Literature values in patent publication US6552014B2, “Methods of inhibiting platelet activation with selective serotonin reuptake inhibitors” (HeartDrug Research, L.L.C., priority 1999, dated 2003).

Conditions: in vivo; cited from earlier work

CN[C@H]1CC[C@@H](c2ccc(Cl)c(Cl)c2)c2ccccc21 [sertraline]
equilibration of serum levels: within approximately one week
